What was measured:
[1] = test system: KG-1 acute myeloid leukemia cells; experiment: Cell proliferation assay KG-1; conditions: read-out: IC50 value, KG-1 cells, 72 hours
[2] = test system: MV4-11 acute myelogenous leukemia cells; experiment: Cell proliferation assay MV4-11; conditions: read-out: IC50 value, MV4-11 cells, 72 hours
Procedure: MV4-11 acute myelogenous leukemia cells were purchased from American Type Culture Collection (cat. no. CRL-9591, ATCC). Frozen stocks were thawed and cells were diluted in IMDM cell culture medium (cat. no. 31980022, Life Technologies), supplemented with 10% (v/v) bovine calf serum and 1% penicillin/streptavidin. 1600 cells per well (in 45 μl) were seeded in a white 384-well culture plate (cat. no. 781080, Greiner Bio-One) and allowed to rest for 24 hours at 37 °C, 95% humidity, and 5% CO2. 5 μl compound solution was added to the cells and incubation was continued for 72 hours (3 days), followed by addition of 24 μl ATPlite 1Step™ (PerkinElmer, Groningen, The Netherlands) solution was added to each well. Luminescence was recorded on an Envision multimode reader. The cell signal at the start of incubation was recorded separately in order to distinguish between cell population growth and cell death. In addition, maximum growth was determined by incubation of a duplicate without compound in the presence of 0.3% DMSO. Percentage growth was used as the main y-axis signal. IC50s were fitted by non-linear regression using IDBS XLfit™ 5 using a 4-parameter logistic curve, yielding a maximum signal, minimum signal, hill-parameter and IC50.

Sequences of proteins named here, by UniProt entry; tags and fusion partners are left off. Residues count along the entry.
UniProt P07949, 29-1114 limits assumed: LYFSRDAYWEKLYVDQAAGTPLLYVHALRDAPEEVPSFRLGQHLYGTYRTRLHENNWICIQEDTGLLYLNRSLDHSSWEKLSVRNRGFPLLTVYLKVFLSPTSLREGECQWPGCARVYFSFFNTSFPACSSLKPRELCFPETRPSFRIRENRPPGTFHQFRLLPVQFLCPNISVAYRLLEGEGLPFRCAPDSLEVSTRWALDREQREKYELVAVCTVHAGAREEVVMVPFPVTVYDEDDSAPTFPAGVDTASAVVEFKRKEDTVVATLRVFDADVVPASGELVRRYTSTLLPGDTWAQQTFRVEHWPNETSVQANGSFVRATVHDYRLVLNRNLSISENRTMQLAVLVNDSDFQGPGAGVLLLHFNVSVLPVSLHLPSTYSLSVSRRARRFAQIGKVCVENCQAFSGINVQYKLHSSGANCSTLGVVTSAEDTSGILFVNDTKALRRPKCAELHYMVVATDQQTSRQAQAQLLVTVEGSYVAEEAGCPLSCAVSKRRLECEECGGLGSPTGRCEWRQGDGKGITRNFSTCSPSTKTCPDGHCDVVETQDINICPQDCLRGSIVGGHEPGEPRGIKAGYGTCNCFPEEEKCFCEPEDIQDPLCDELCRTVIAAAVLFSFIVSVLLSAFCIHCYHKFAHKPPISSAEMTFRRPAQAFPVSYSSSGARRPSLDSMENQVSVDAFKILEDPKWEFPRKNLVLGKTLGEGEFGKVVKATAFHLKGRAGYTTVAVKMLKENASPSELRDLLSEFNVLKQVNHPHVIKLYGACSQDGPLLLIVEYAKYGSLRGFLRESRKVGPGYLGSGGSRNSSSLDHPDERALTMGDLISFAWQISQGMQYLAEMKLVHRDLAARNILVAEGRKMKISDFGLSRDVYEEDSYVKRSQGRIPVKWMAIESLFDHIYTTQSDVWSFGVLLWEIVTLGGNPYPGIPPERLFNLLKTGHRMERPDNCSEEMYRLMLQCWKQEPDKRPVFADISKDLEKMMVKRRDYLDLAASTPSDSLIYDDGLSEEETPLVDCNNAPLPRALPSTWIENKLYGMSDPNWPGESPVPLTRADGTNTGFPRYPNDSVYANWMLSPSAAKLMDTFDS
UniProt P06239, whole entry: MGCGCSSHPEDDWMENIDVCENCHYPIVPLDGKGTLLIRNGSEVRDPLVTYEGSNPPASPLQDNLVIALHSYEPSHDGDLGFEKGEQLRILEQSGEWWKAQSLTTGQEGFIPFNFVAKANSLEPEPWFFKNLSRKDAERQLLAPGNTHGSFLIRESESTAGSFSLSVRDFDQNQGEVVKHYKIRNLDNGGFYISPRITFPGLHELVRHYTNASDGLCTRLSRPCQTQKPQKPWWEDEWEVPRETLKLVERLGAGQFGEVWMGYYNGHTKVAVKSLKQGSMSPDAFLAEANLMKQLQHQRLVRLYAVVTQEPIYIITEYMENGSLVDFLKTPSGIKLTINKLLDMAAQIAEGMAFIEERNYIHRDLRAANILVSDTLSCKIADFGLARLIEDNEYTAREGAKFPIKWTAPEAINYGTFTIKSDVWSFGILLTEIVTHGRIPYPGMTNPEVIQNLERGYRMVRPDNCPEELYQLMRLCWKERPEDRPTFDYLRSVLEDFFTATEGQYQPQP

RET = RET (Homo sapiens, UniProt P07949); experiment: Biochemical kinase assay RET (33P-ATP filter binding); conditions: read-out: IC50 value; RET 2 nM, 10 μM ATP, 20 min pre-incubation, 120 min reaction
Procedure: Biochemical Kinase Assay RET
The kinase activity of RET was assayed at Reaction Biology Corporation. The substrate in the RET reaction, TRK-C derived peptide (Genscript, Cat. #U4552FL280_1), was prepared in fresh reaction buffer (20 mM HEPES (pH 7.5), 10 mM MgCl2, 1 mM EGTA, 0.01% Brij35, 0.02 mg/mL BSA, 0.1 mM Na3VO4, 2 mM DTT, 1% DMSO). RET (Invitrogen, Cat. #PV3819) was delivered into the substrate solution and mixed gently. The final concentrations of RET and the substrate in the reaction were 2 nM and 20 μM respectively. Compounds were tested in 10-point concentration/response mode with 3-fold serial dilution steps starting at 10 μM.
Compounds in 100% DMSO were delivered into the kinase reaction mixture by acoustic liquid delivery technology (ECHO550; nanoliter range) and incubated for 20 min at room temperature. 10 μM [^33P]-ATP (ATP: Sigma, Cat #: A7699; [^33P]-ATP: Hartmann Analytic, Cat #: SCF-301-12) was delivered into the reaction mixture to initiate the reaction. The mixture was incubated for 120 min at room temperature. Radioactivity was detected utilizing a proprietary filter-binding method. Kinase activity data were expressed as the percent remaining activity in test samples compared to vehicle (DMSO) reactions. IC50 values and curve fits were obtained using Prism4Software (GraphPad).

LCK = LCK (Homo sapiens, UniProt P06239); experiment: Biochemical kinase assay LCK (IMAP); conditions: read-out: IC50 value; LCK 2.9 nM, 4 μM ATP, 1 h pre-incubation, 2 h reaction
Procedure: Biochemical Kinase Assay LCK
To determine the inhibitory activity of compounds on LCK enzyme activity, the IMAP® assay (Molecular Devices) was used. Compounds were serially diluted in dimethylsulfoxide (DMSO) and subsequently in 4% DMSO in IMAP reaction buffer, which consists of 10 mM Tris-HCl, pH 15 7.5, 10 mM MgCl2, 0.01% Tween-20, 0.1% NaN3 and 1 mM freshly prepared dithiotreitol (DTT). Compound solution was mixed with an equal volume of full-length Lck enzyme (Carna Biosciences, cat. no. 08-170) in IMAP reaction buffer. After pre-incubation of 1 hour in the dark at room temperature, fluorescein-labeled MBP-derived substrate peptide (Molecular Devices, cat. no. RP 7123) was added, followed by ATP to start the reaction. Final enzyme concentration was 2.9 nM final substrate concentration 100 nM, and final ATP concentration was 4 μM. The reaction was allowed to proceed for 2 hours at room temperature in the dark. The reaction was stopped by quenching with IMAP progressive binding solution according to the protocol of the manufacturer (Molecular Devices). Fluorescein polarization was measured on an Envision multimode reader (Perkin Elmer, Waltham, MA, U.S.A.). IC50 were calculated using XLfit™5 software (ID Business Solutions, Ltd., Surrey, U.K.).

| IC50 [1] [nM] | IC50 [2] [nM] | IC50 (RET) [nM] | IC50 (LCK) [nM] | Structure (SMILES) |
| --- | --- | --- | --- | --- |
| < 300 | < 50 | < 5 |  | CC(C)(C)c1cc(NC(=O)Cc2ccc(-c3nc4n5c(cnc(N)c35)/C=C/CCOCCC(=O)N[C@@H]3CCC[C@@H]4C3)cc2)no1 |
|  |  |  | < 5 | Nc1ncc2c3c1c(-c1ccc(C(=O)Nc4cc(C(F)(F)F)ccn4)cc1)nn3[C@@H]1CCC[C@H](C1)NC(=O)[C@H]1CN(C/C=C/2)CCN1 |

— patent publication US20260382605A1, “REVERSIBLE MACROCYCLIC KINASE INHIBITORS” (published 2026)
